{"source": "patent US9266902B2", "about": "“Labelling reagents having a pyridine nucleus bearing a diazomethyl function, process for synthesis of such reagents and processes for detection of biological molecules” (priority 2008, dated 2016)", "assay": "Stability in the dry form at +4° C. after lyophilisation (HPLC purity over time)", "settings": "250 mM in 10 mM Tris HCl pH 7.5 and 10% trehalose, lyophilised one night", "data": [{"substance": "Pyridine Diazo Ketone Biotin [PyDKB]", "values": [{"measurement": "stability to lyophilisation", "value": "perfectly stable"}]}]}
